# Laboratory results published in ChEMBL document CHEMBL4229332, “Novel multi-target azinesulfonamides of cyclic amine derivatives as potential antipsychotics with pro-social and pro-cognitive effects” (Eur J Med Chem, 2018).
# Sequences of proteins named here, by UniProt entry; tags and fusion partners are left off. A change or cut given only in a name is not applied to a line headed by its entry.
# UniProt P28335: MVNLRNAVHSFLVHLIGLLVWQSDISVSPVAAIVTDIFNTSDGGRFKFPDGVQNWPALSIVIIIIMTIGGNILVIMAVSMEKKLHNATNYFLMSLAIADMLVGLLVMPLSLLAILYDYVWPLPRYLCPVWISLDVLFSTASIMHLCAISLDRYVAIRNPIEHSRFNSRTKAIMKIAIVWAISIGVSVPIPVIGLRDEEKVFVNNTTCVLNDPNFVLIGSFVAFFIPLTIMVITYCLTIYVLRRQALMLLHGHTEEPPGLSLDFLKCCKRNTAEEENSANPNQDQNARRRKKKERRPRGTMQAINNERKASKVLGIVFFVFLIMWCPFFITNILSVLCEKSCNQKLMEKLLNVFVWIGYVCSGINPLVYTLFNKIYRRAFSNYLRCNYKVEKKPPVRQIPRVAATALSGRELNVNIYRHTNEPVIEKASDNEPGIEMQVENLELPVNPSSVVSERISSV
# Biological target: 5-hydroxytryptamine receptor 2C (Homo sapiens) (UniProt P28335)
# Assay: Antagonist activity at human 5-HT2CR expressed in HEK293 cells assessed as inhibition of serotonin-induced IP1 accumulation after 30 mins by HTRF method
# Type: functional, cell-based
structure (smiles),measurement,value
Cn1ccc2cc3c(cc21)CCN3C(=O)Nc1cccnc1,Kb,2.3 nM
